GIV Gai3 FP: GIV-Galpha-i interaction inhibition. 210,000 compounds, 0.42% hits. percent of control (FP), % (no concentration beside the values). Galpha-i3/FITC-GIV peptide fluorescence polarization, 90 min; active compounds read low; scaled: aluminum fluoride 0%, vehicle 100%. AID 1224905. P08753;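 active = replicate mean at 85% of control or lower, very high polarization wells dropped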;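 note: wells of about 15 µL received 100 nL stock; the first replicate is given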
HCMV UL50-53 inh: inhibitors of HCMV UL50-UL53 interaction, biochemical, HTRF; HCMV UL50-UL53 nuclear egress complex (human cytomegalovirus); normalized percent inhibition; inhibition, % (no concentration beside the values); actives 0.15% (n = 190,000); AID 1918969, 2023; in the data active means inhibition above about 27%, passing the limit was not always enough
GIV Gai FP conf: inhibitors of GIV peptide binding to Galpha-i3, confirmation, biochemical, fluorescence polarization, FITC-GIV peptide, rat Galphai3; fluorescence polarization, mP at 100 µM; actives 38% (n = 580); hits give low values; AID 1259350, 2017; shares compounds with GIV Gai3 FP;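 active means inhibition score of 15 or more, meaning 100 minus mean polarization as percent of control over three replicates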;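 further: lower mP means peptide displaced from Galphai3 so more inhibition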
GIV Gai AS conf: inhibitors of GIV binding to Galpha-i3, confirmation, orthogonal assay for GIV-Galpha-i inhibitor project, biochemical, AlphaScreen, His-GIV, GST-Galphai3 | shares compounds with GIV Gai3 FP | purified proteins, 90 min; hits give low values | AlphaScreen counts at 100 µM | actives 39% (n = 580) | AID 1259351, 2017;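 active means inhibition score at or above a set limit, where the score is 100 minus the three-replicate mean percent of control signal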
* marks the source's active call; other numbers are inactive results; . = not tested or not shown. Only some compounds are listed: those with a hit (about 0.43% of all), similar ones and a draw of the others.

[1] COc1ccc(-n2ccc(=O)c(-c3nc(-c4ccc(F)cc4)no3)n2)cc1
[2] O=C(O)CC1(CC(=O)NCc2cccnc2)CCCCC1
[3] N#C/C(=C\c1ccccc1/C=C(\C#N)c1ccc2c(c1)OCO2)c1ccc2c(c1)OCO2
[4] COc1ccc(NC(=O)c2ccc(-n3nc(Sc4ccc(F)cc4)ccc3=O)cc2)cc1
[5] COc1cc(-c2nc(C=Nc3ccc4ccccc4c3)c(O)o2)cc(OC)c1OC
[6] COC(=O)c1ccc(N=Cc2nc(-c3cc(OC)c(OC)c(OC)c3)oc2O)cc1
[7] Cc1nnsc1C(=O)N1CCc2[nH]c3ccc(F)cc3c2C1
[8] C=CCNC(=O)N1CCc2[nH]c3ccc(F)cc3c2C1
[9] CCc1ccc(NC(=O)NC(C(=O)N2CCc3ccccc32)C(C)C)cc1 (stereo not drawn)
[10] COc1ccc(C2=C(N3CCN(c4ccccn4)CC3)c3ccccc3C2=O)cc1

assay / entry	1	2	3	4	5	6	7	8	9	10
GIV Gai FP conf	.	.	.	.	.	58	.	59*	.	.
GIV Gai AS conf	.	.	.	.	.	54563	.	37919	.	.
HCMV UL50-53 inh	.	-2	-13	-55	.	.	-12	-36	.	-60
GIV Gai3 FP	101	109	.	106	104	95	99	85*	97	108

[11] N#CCC(=O)NCC1OCCc2ccccc21 (stereo not drawn)
[12] CCOC(=O)c1ccc(-c2ccc(/C=c3/sc4nc5c(C)c(C)ccc5n4c3=O)o2)cc1
[13] CCOc1cc(/C=c2\sc3nc4c(C)c(C)ccc4n3c2=O)cc(Cl)c1O
[14] N#CC(C#N)=C(N)/C(C#N)=C/c1ccco1
[15] N#C/C(=C\C=C\c1ccco1)C(N)=S
[16] N#CC1=C(SCc2ccccc2)SC(CO)NC1=O (stereo not drawn)
[17] N#CC1=C(SCc2ccccc2)SC(c2ccc(C(=O)O)cc2)NC1=O (stereo not drawn)
[18] COc1ccc2[nH]c3c(c2c1)CCN1C[C@H]2C[C@@H](OC(=O)c4cc(OC)c(OC)c(OC)c4)[C@H](OC)[C@@H](OC(C)=O)[C@H]2C[C@H]31
[19] O=C1N(Cc2cc(=O)n3ccccc3n2)c2ccccc2S(=O)(=O)N1c1ccc(Cl)cc1
[20] Cc1cc(C)cc(N2C(=O)N(Cc3cc(=O)n4ccccc4n3)c3ccccc3S2(=O)=O)c1

assay / entry	11	12	13	14	15	16	17	18	19	20
GIV Gai FP conf	.	66	.	.	50*	.	65	.	51*	.
GIV Gai AS conf	.	32406	.	.	2145*	.	28170*	.	35949	.
HCMV UL50-53 inh	19	.	0	-69	51	-15	.	-14	.	.
GIV Gai3 FP	107	79*	.	112	78*	106	74*	103	85*	107

[21] COc1ccccc1NC(=O)CSc1nc2ccccc2c(=O)n1CC1CCC(C(=O)NCc2ccco2)CC1 (stereo not drawn)
[22] CCOC(=O)c1c(NC(=O)C(C)Sc2nnc(CNC(=O)c3cccc(F)c3)n2CCc2ccccc2)sc2c1CCC2 (stereo not drawn)
[23] CN1C(=O)Cc2ccccc21
[24] CN1C(=O)Cc2ccccc2C1=O
[25] COC(=O)Cc1nc(N2CCC(C)CC2)c2c3c(sc2n1)CCCC3
[26] COc1ccc(C=C2C(=O)NC(=O)NC2=O)cc1Oc1ccc([N+](=O)[O-])cc1[N+](=O)[O-]
[27] COc1cc(/C=C2\SC(=O)N(C)C2=O)ccc1Oc1ccc([N+](=O)[O-])cc1[N+](=O)[O-]
[28] CNC(=O)c1ccc(-c2nc(CN3CCN(C(=O)Nc4ccc(F)cc4)CC3)c(C)o2)cc1
[29] O=C(O)c1cc(NC(=O)c2ccc(NC(=O)c3ccco3)cc2)cc(C(=O)O)c1
[30] CC(=O)Nc1ccc(NC(=O)c2ccco2)cc1

assay / entry	21	22	23	24	25	26	27	28	29	30
GIV Gai FP conf	.	.	.	59*	.	60	.	.	64*	.
GIV Gai AS conf	.	.	.	17985*	.	15324*	.	.	22001*	.
HCMV UL50-53 inh	.	.	-3	67*	11	51*	-20	-19	-34	-1
GIV Gai3 FP	105	117	101	80*	103	87	96	102	79*	94

[31] CCn1c(C)cc(O)c(C(c2cccc(OC)c2)N2CCN(c3ccc(F)cc3)CC2)c1=O (stereo not drawn)
[32] O=C(NCCc1nc2cccnc2n1C1CCCCC1)Nc1ccccc1Br
[33] CCCN1C(=O)c2ccc(-c3ccccc3)n2CC1(C)C(=O)NC1CCCC1 (stereo not drawn)
[34] C=CCN(CC=C)S(=O)(=O)c1ccc(C(=O)Nc2ccc3c4c(cccc24)C(=O)N3CC)cc1
[35] CCCN(CCC)S(=O)(=O)c1ccc(C(=O)Nc2ccc3c4c(cccc24)C(=O)N3CC)cc1
[36] O=C(c1cc2cc(Br)ccc2o1)N1CCc2c([nH]c3ccccc23)C1
[37] Cc1ccc2c(c1)c1c(n2C)C(C#N)CCC1 (stereo not drawn)
[38] Cc1ccc2c(c1)c1c3c(nccn32)CCC1
[39] O=C(CCN1C(=O)/C(=C/c2ccc3c(c2)OCO3)SC1=S)NC1=NCCS1
[40] O=C(CCN1C(=O)/C(=C/c2ccc3c(c2)OCO3)SC1=S)Nc1ccccc1

assay / entry	31	32	33	34	35	36	37	38	39	40
GIV Gai FP conf	.	.	.	64	.	.	.	61*	60	.
GIV Gai AS conf	.	.	.	46376	.	.	.	13099	47879	.
HCMV UL50-53 inh	-23	7	10	.	.	.	-12	-40	-51	-8
GIV Gai3 FP	103	111	100	78*	130	105	96	76*	84*	.

Among those listed so far, these have a Cl atom.
[13] CCOc1cc(/C=c2\sc3nc4c(C)c(C)ccc4n3c2=O)cc(Cl)c1O
[19] O=C1N(Cc2cc(=O)n3ccccc3n2)c2ccccc2S(=O)(=O)N1c1ccc(Cl)cc1

assay / entry	13	19
GIV Gai FP conf	.	51*
GIV Gai AS conf	.	35949
HCMV UL50-53 inh	0	.
GIV Gai3 FP	.	85*
